Key:
FL cells = test: Human IFN bioassay, inhibition of cell denaturation effect by viruses; format: cell-based
Method: Human IFN bioassay was conducted by the method of Watabe et al. (Lymphokines and Interferones; A Practical Approach, IRL Press, Oxford, 1987) based on inhibition of a cell denaturation effect by viruses using FL cells. That is, when a virus was used in an amount by which to induce 100% cell denaturation, cells was treated in advance with an IFN sample dilute solution. The IFN potency of the sample dilute solution given when the viral cell denaturation was inhibited by 50% was rated as 1 unit (IU). The IFN biological activities of (Gal)3-INF-α and INF-α were calculated on the basis of the potency of the human INF-α standard product (supplied by The Green Cross Corporation).

[1] = tested on: IL-2 dependent mouse cells “CTLL-2”; test: IL-2 biological activity using IL-2 dependent CTLL-2 cells; format: cell-based; conditions: relative to rhIL-2
Method: The IL-2 biological activity of (Gal)3-rhIL-2, (GalNAc)3-rhIL-2, PEG12, (Gal)3-rX2-IL-2 and rhIL-2 was measured by the method of Gills et al. (J. Immunol., 120, 2027 (1978)) using IL-2 dependent mouse cells “CTLL-2” (ATCC T1B 214) obtained from ATCC.

[2] = tested on: mouse-separated hepatocytes; test: Uptake of 125I-labeled modified product into hepatocytes; format: cell-based; conditions: 24 nM, 37° C., 0-4 hours
Method: The test for binding of a modified product into hepatocytes was conducted, like the binding test, using cells obtained by incubating hepatocytes (total of 6.0×10^7 cells, bioavailability 92%) formed by refluxing 3 mice (C57BL/6, 9W, male) with a collagenase and purifying them through centrifugation at a low rate, on a collagenase-coated plate in amounts of 6×10^5 cells/well in a 10% FBS-containing D-MEM medium (supplied by Gibco, containing 100 U/ml of penicillin, 100 μg/ml of streptomycin and 50 μg/ml of gentamicin) overnight at 37° C. in 5% CO2.
The test for uptake into hepatocytes was also conducted according to the method of Chang et al (T. Chang et al., BBA 942. 57-64 (1988)). The cells which were approximately in the almost confluent state were washed once with a D-MEM medium (pH 7.4) containing 0.1% BSA and 10 mM Hepes, and the buffer was added thereto. The mixture was incubated in 5% CO2 at 37° C. for 30 minutes. One milliliter of 24 nM of (Gal)3-rhIL-2 (1.14×10^7 cpm/μg (calculated as IL-2)), (GalNAc)3-rhIL-2 (1.09×10^7 cpm/μg (calculated as IL-2)) or ASOR (3.16×10^6 cpm/μg) (dissolved in the buffer) which had been ^125I-labeled by the chloramine T method was added thereto, and the incubation was conducted at 37° C. for fixed periods of time (0 minute, 30 minutes, 1 hour, 2 hours and 4 hours). […] The radioactivity by the non-specific binding was subtracted from the radioactivity of 0.8 ml of 1 ml of the 0.1 N NaOH solution containing 0.5% SDS in each well, and the radioactivity of the total amount thereof was calculated from the above-obtained value. The thus-calculated value was defined as an amount of an uptake fraction. Meanwhile, a value obtained by subtracting the radioactivity by the non-specific degradation from the radioactivity of the total trichloroacetic acid-soluble fraction in the medium was defined as an amount of a degradation fraction. […] The total protein amount of the cells was calculated by the Lorry method with respect to 0.1 ml of the solution.

[3] = target: T1, asialoglycoprotein receptor (Mus musculus, UniProt P24721+P34927); test: Test for inhibition of liver accumulation by simultaneous administration of ASOR; conditions: mice, 50 μg/kg with 1,322 μg/kg ASOR, after 2 minutes
T1 sequence (P34927 1-284): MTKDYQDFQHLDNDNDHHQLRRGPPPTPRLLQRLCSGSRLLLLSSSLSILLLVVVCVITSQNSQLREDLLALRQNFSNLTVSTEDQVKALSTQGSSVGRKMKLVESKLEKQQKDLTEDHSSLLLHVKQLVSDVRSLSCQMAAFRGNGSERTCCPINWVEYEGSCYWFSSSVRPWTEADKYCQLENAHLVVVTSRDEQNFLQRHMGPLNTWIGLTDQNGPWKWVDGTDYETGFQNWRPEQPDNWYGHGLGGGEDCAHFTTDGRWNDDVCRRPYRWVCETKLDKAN
T1 sequence (P24721 1-301): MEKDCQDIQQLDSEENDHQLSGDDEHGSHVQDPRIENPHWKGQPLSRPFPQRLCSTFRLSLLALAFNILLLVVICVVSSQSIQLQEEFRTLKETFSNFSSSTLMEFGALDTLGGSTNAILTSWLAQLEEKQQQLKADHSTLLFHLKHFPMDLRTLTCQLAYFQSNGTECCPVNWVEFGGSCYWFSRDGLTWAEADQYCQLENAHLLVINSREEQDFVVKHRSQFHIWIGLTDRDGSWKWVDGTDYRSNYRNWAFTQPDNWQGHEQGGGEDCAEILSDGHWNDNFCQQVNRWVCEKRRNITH

[4] = mouse, in vivo
[5] = Toxicity: organ weights and blood biochemical test after repeated intravenous administration; conditions: for organ weight % of the liver vs physiological saline group / organ weight (% (w/w)) of the lung vs physiological saline group: 40 μg/day; for organ weight % of the liver vs physiological saline group / organ weight (% (w/w)) of the lung vs physiological saline group / organ weight of the kidney: i.v. twice a day for 5 days; for organ weight of the kidney: 1.5-40 μg/day; for AlB-S (albumin) / BUN-S (blood urea nitrogen) / GOT (glutamic oxaloacetic transaminase) / GPT (glutamic pyruvic transaminase) / TBIL-S (total bilirubin) / TP-S (total protein): serum, with increase in dose 1.5-40 μg/day
[6] = tested on: fibrosarcoma (S908, D2. vp2); test: Antitumor effect in mice with fibrosarcoma implanted in the liver; format: in vivo, mice (B10D2); conditions: i.v. five times, 0.5 μg/shot from Day 7; Day 28
Method: Mice (B10D2, 6W, female) in which a fibrosarcoma (S908, D2. vp2) was implanted in the liver (7.5×10^4 cells/mouse) were used in this test. On Day 7 after the implantation, (Gal)3-rhIL-2 and rhIL-2 were intravenously administered five times in total (0.5 μg/shot) (n=4). On Day 28, the anatomical examination was conducted.

Substance | specific activity to unmodified INF-α (FL cells) [%] | IFN biological activity (FL cells; calculated on potency of human INF-α standard product) | specific activity to rhIL-2 (IL-2 biological activity) [1] [%] | degradation component [2] | uptake component in hepatocytes [2] | amount accumulated in the liver through simultaneous administration of ASOR [3] | toxicity (overall conclusion) [4] | organ weight % of the liver vs physiological saline group [5] | organ weight (% (w/w)) of the lung vs physiological saline group [5] | organ weight of the kidney [5] | AlB-S (albumin) [5] | BUN-S (blood urea nitrogen) [5] | GOT (glutamic oxaloacetic transaminase) [5] | GPT (glutamic pyruvic transaminase) [5] | TBIL-S (total bilirubin) [5] | TP-S (total protein) [5] | tumor size at anatomical examination compared to rhIL-2 group [6]
(Gal)3-INF-α: human INF-α(2b) modified with one molecule of branched galactose ligand (Gal)3 | 82 | 1.17×10^8 IU/mg | – | – | – | – | – | – | – | – | – | – | – | – | – | – | –
(Gal)3-rhIL-2: rhIL-2 with one molecule of branched Gal ligand (Gal)3 bound at Gln-74 via microbial transglutaminase | – | – | 102 | scarcely observed | scarcely observed | decreased at the same level as that of rhIL-2 | lower than that of rhIL-2 in the lung | significant increase | no significant increase | no increase in the organ weight was observed | no increase in the measured value with the increase in the dose was observed | no increase in the measured value with the increase in the dose was observed | increase in the measured value was observed | increase in the measured value was observed | increase in the measured value was observed | no increase in the measured value with the increase in the dose was observed | remarkably minimized
(GalNAc)3-rhIL-2: rhIL-2 modified with one molecule of branched N-acetylgalactosamine ligand (GalNAc)3 via microbial transglutaminase | – | – | 110 | – | taken up in a relatively short period of time | – | – | – | – | – | – | – | – | – | – | – | –
rhIL-2: recombinant human interleukin-2, unmodified [reference compound] | – | – | – | – | – | – | – | significant increase | significant increase | no increase in the organ weight was observed | no increase in the measured value with the increase in the dose was observed | no increase in the measured value with the increase in the dose was observed | increase in the measured value was observed | increase in the measured value was observed | increase in the measured value was observed | no increase in the measured value with the increase in the dose was observed | –

Reference: US6620916B1, “Modified physiologically active proteins and medicinal compositions containing the same” (Ajinomoto Co., Inc., priority 1996, dated 2003)
